Laboratory results taken from US20150080465A1 (priority 2013, published 2015).

Tests used:
[1] = test system: NQO1 in Hepa1c1c7 murine hepatoma cells; experiment: NQO1 induction; assay type: cell-based
[2] = test system: diabetes-associated atherosclerosis; details: cited from earlier work
[3] = test system: monocrotaline (MCT)-induced pulmonary arterial hypertension; experiment: Rat model of monocrotaline (MCT)-induced pulmonary arterial hypertension; assay type: in vivo
[4] = test system: ETA and ETB receptors; experiment: Rat 5/6 nephrectomy model of chronic renal failure, endothelin receptor expression in kidney; details: 5/6 nephrectomy rats, 2 mg/kg once daily 12 weeks

SMILES	NQO1 CD (concentration required to induce a two-fold increase in the expression of NQO1) [1] [nM]	Lesion deposition within the aortic sinus ([2]; in vivo)	Plaque in the arch, thoracic, and abdominal regions of the aorta ([2]; inverse dose-dependent manner)	Lung histology effect compared with positive control ([3]; 10 mg/kg, 21 days)	Pulmonary edema ([3]; 10 mg/kg/day, 21 days)	Expression of pro-inflammatory NF-κB target genes in rat lung ([3]; 2, 10 or 30 mg/kg/day)	mRNA expression of antioxidative Nrf2 target genes in rat lung ([3]; 2, 10 or 30 mg/kg/day)	MCT-induced microscopic changes in the lung (arteriolar hypertrophy, pulmonary edema, cell and fibrin infiltrates) ([3]; 2, 10 or 30 mg/kg/day, 21 days, all dose levels)	Induction of the ETA receptor in kidney [4]	Reduced expression of the ETB receptor in kidney [4]
CC1(C)CC[C@]2(C#N)CC[C@]3(C)[C@H](C(=O)C=C4[C@@]5(C)C=C(C#N)C(=O)C(C)(C)[C@@H]5CC[C@]43C)[C@@H]2C1	0.28	–	–	–	–	–	–	–	–	–
CC1(C)CC[C@]2(C(=O)NCC(F)(F)F)CC[C@]3(C)[C@H](C(=O)C[C@@H]4[C@@]5(C)C=C(C#N)C(=O)C(C)(C)[C@@H]5CC[C@]43C)[C@@H]2C1	–	attenuate lesion deposition	reduce plaque	as effective as the positive control sildenafil	completely abrogated	decrease in expression	dose-dependent and significant induction	inhibited microscopic changes	completely suppressed	partially reversed
